Measured values: paper PMC7383931, “Novel Thienopyrimidine Inhibitors of Leishmania N-Myristoyltransferase with On-Target Activity in Intracellular Amastigotes” (Journal of Medicinal Chemistry, 2020)

System: NMT (protein myristoylation) in L. donovani amastigotes
Assay: microbe, parasite or virus in culture
Conditions: Leishmania donovani, read-out: TC50 (CI95), tagging IC50

Structure (SMILES) | IC50 [µM]
CN1CCC(N(C)c2nc(N(C)CCC#N)c3ccccc3n2)C1 (centres unmarked) [Compound 26, 3-(Methyl(2-(methyl(1-methylpyrrolidin-3-yl)amino)quinazolin-4-yl)amino)propanenitrile] | 32.5
CN1CCC(N(C)c2nc(N(C)CCC#N)c3sccc3n2)CC1 [Compound 1, 3-(Methyl(2-(methyl(1-methylpiperidin-4-yl)amino)thieno[3,2-d]pyrimidin-4-yl)amino)propanenitrile] | 21.6
